scFv variants of Ab-91 (heavy chain) against a SARS-CoV-2 spike peptide

From the AlphaSeq antibody data of Engelhart et al. 2022 (doi:10.1038/s41597-022-01779-4), copy in the FLAb collection.

All variants were tested on one target, the spike HR2 peptide PDVDLGDISGINAS (SARS-CoV-2).

Parent scFv Ab-91: VL joined to VH by three GGGGS repeats. Changes lie in the heavy chain CDRs alone.
VL: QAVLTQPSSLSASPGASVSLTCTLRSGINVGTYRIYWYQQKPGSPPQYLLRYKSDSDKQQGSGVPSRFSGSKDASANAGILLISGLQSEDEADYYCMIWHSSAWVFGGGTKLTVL
VH: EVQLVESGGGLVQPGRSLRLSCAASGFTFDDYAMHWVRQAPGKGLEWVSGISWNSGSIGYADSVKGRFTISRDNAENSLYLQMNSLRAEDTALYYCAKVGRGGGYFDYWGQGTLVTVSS

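The parent was found by panning a naive human phage display library on the peptide. Variants in AAYL51 differ from the parent at up to three CDR positions; double and triple changes were sampled at random. The scFvs were displayed on barcoded MATa yeast, the peptide on MATalpha yeast. Mating (16 h, 30 °C) was followed by selection of diploids and sequencing of their barcodes. Each replicate has its own calibration line, from reference interactions of the BCL2 family. The assay was run in three technical replicates.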

Changes read parent residue, position, new residue, counted from the first residue of the VH shown.
This list gathers variants with a substitution at H35 (VH, numbered from residue 1).
Kd is apparent (estimated from mating counts) and averaged on the log scale over replicates with a signal. Smaller is tighter.
Where no diploid with the target was found in any replicate, the entry reads "nd": below detection, most likely a poor binder, though not proof of it.
For reference, the parent read 72 nM as the reference entry and 7.5 nM as a member of this library.

H35A/V64I/K65F: 24 µM (1 of 3 replicates; controls 1 of 9).
D31R/H35M/G59L: 280 µM (2 of 3 replicates; controls 1 of 9).
H35Y/D62A: nd (0 of 3 replicates; controls 0 of 9).
H35M/Y108F: 7.0 µM (1 of 3 replicates; controls 3 of 9).
D30R/H35C/K65I: nd (0 of 3 replicates; controls 0 of 9).
Y32W/H35A/D62C: 130 nM (3 of 3 replicates; controls 0 of 9).
Y32H/H35G: 5.4 µM (2 of 3 replicates; controls 3 of 9).
G26F/H35E/N54G: nd (0 of 3 replicates; controls 0 of 9).
Y32H/H35C/G50D: 570 µM (2 of 3 replicates; controls 3 of 9).
F29T/M34E/H35A: nd (0 of 3 replicates; controls 2 of 9).
H35R/G59F/G102C: 87 µM (1 of 3 replicates; controls 3 of 9).
H35L/S55K/Y108Q: nd (0 of 3 replicates; controls 1 of 9).
H35A/G50H/Y108T: nd (0 of 3 replicates; controls 0 of 9).
F29H/H35F/I51Y: 280 µM (1 of 3 replicates; controls 5 of 9).
G26N/H35M/V64H: nd (0 of 3 replicates; controls 1 of 9).
H35R/G59T/R101F: 130 µM (3 of 3 replicates; controls 4 of 9).
H35I/G56M/V99P: 91 µM (3 of 3 replicates; controls 6 of 9).
H35M/S57A/Y108L: 130 µM (3 of 3 replicates; controls 0 of 9).
H35R/G59L/A61H: 22 µM (3 of 3 replicates; controls 6 of 9).
G26M/H35V/Y60K: nd (0 of 3 replicates; controls 0 of 9).
H35W/G50Y/I51K: nd (0 of 3 replicates; controls 0 of 9).
H35Q/Y108N: 62 µM (1 of 3 replicates; controls 2 of 9).
H35V/S63L/R101I: nd (0 of 3 replicates; controls 0 of 9).
H35P/S55C/Y60G: 6.3 µM (1 of 3 replicates; controls 1 of 9).
M34R/H35D/G50H: 44 µM (3 of 3 replicates; controls 4 of 9).
H35L/I51A/Y60F: 58 µM (1 of 3 replicates; controls 1 of 9).
A33I/H35N/W53E: 38 µM (1 of 3 replicates; controls 2 of 9).
H35Y/G50W/S63K: 540 µM (1 of 3 replicates; controls 2 of 9).
D30Y/H35M/F106K: nd (0 of 3 replicates; controls 1 of 9).
H35E/I51P/Y108I: 58 µM (2 of 3 replicates; controls 2 of 9).
H35Q/S57V/F106I: nd (0 of 3 replicates; controls 1 of 9).
T28M/H35C/D107R: nd (0 of 3 replicates; controls 0 of 9).
T28Y/H35A/G59W: nd (0 of 3 replicates; controls 0 of 9).
H35K/S57Y/S63M: 120 µM (2 of 3 replicates; controls 3 of 9).

The first 5 entries again:

{"changes": "H35A/V64I/K65F", "apparent Kd": "24 µM", "replicates with signal": "1/3", "signal with controls": "1/9"}
{"changes": "D31R/H35M/G59L", "apparent Kd": "280 µM", "replicates with signal": "2/3", "signal with controls": "1/9"}
{"changes": "H35Y/D62A", "apparent Kd": "nd", "replicates with signal": "0/3", "signal with controls": "0/9"}
{"changes": "H35M/Y108F", "apparent Kd": "7.0 µM", "replicates with signal": "1/3", "signal with controls": "3/9"}
{"changes": "D30R/H35C/K65I", "apparent Kd": "nd", "replicates with signal": "0/3", "signal with controls": "0/9"}

Empty control strains, which show no peptide, gave a signal in 21% of pairings with library AAYL51; the median was 34 µM and 95% of these signals were weaker than 1.8 µM. No background was subtracted. For each scFv, signals with the empty controls are counted beside the result.